High-throughput results from PubChem BioAssay.
MC4R antagonist = MC4R antagonists of cAMP signaling, primary screen, cell-based, TR-FRET, antagonist arm of biased-ligand search. inhibition, % at 6.5 µM. hit rate 0.48% among 360,000. MC4R-expressing cells, MTII-stimulated cAMP, LANCE TR-FRET. AID 540295, 2011;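 active = inhibition above its plate's cutoff, the mean of tested wells on that plate plus 3 SD, cut at about 29% in these data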
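System – human MC4R-expressing U2OS cells · Also added – Melanotan II · Dosing – one concentration, 6.5 µM nominal · Timing – 30-min compound, 1-h challenge, 1-h detection, room temperature · Measured by – Eu-cAMP/anti-cAMP TR-FRET, emission 671 nm · Replicates – singlicate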
MC4R barr agon = MC4R agonists recruiting beta-arrestin, primary screen, cell-based, luminescence, agonist arm of biased-ligand search. U2OS MC4R beta-arrestin complementation; percent of melanotan II response, DMSO zero. activation, % at 8.9 µM. hit rate 0.98% among 360,000. AID 540308, 2011;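 active = activation above a per-plate cutoff, the mean activation of sample wells on that plate plus 3 SD, cut at about 8% in these data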
UUG fidelity = alters start codon recognition fidelity in yeast. S. cerevisiae UUG-firefly luciferase reporter, luminescence/redox ratio. 350,000 tested, 0.13% active. activity score, % at 18.7 µM. AID 602363;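 active means replicate mean at a twofold rise or more, about +100% in these data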;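 further: firefly luciferase made from a UUG start codon reports start codon fidelity; reporter light over untreated wells divided by growth signal over untreated wells; some hits fall short of that in this replicate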
ALR inh = human ALR oxidase inhibition via reduced H2O2. 290,000 tested, 3.8% active. AID 485317. purified ALR, DTT oxidation, H2O2 HRP-luminol luminescence. inhibition, % (test concentration not listed). P55789;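 active = mean and each replicate at 75% or more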;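 also: stock transfer was 7.5 nL into about 7.5 µL; 0% = neutral wells and 100% = wells with inactivated enzyme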
HDAC3 inh = HDAC3 deacetylase inhibitors, primary screen, biochemical, fluorescence, cell-free homogeneous. Histone deacetylase 3 (Homo sapiens), O15379. recombinant HDAC3, fluorogenic peptide/trypsin coupled. inhibition, % at 8.3 µM. hit rate 0.15% among 320,000. AID 2718, 2010; in the data active = inhibition above about 26%, passing the limit was not always enough
NALP1 yeast inh = NALP1 inflammasome inhibitors in reconstituted yeast, colorimetric, S. cerevisiae, triplicate retest; AID 2071, 2009; inhibition, % at 10 µM; hit rate 0.61% among 280,000; S. cerevisiae NALP1/ASC/caspase-1 growth, X-gal OD620, 72 h; in the data active = inhibition mostly above about 24%, no sharp cut-off; inactive = mostly below about 32%
A number is an active result; . = inactive; / = no result given. A selection: hits, their analogues and other compounds. The true share with any hit is near 4.2%.

SMILES	MC4R antagonist	MC4R barr agon	UUG fidelity	ALR inh	HDAC3 inh	NALP1 yeast inh
C[C@@H]1CN([C@@H](C)CO)C(=O)Cc2cc(NC(=O)CCN3CCOCC3)ccc2O[C@H]1CN(C)C(=O)Nc1ccc(F)cc1	/	/	.	/	/	/
C[C@H]1CN([C@@H](C)CO)C(=O)c2cc(NC(=O)Nc3ccccc3)ccc2O[C@H]1CN(C)Cc1ccc(Cl)c(Cl)c1	/	/	.	/	/	/
O=C1OC(c2ccccc2)/C(=C(/O)c2ccc(Cl)cc2)C1=O (stereo unspecified)	.	.	.	98.5	.	.
CN1C(=O)C(=O)/C(=C(/O)c2ccccc2)C1c1ccccc1 (stereo unspecified)	.	.	.	.	.	.
O=C1OC(c2ccccc2)/C(=C(/O)c2ccccc2)C1=O (stereo unspecified)	.	.	.	92.3	.	.
Cc1ccc(/C(O)=C2\C(=O)C(=O)N(C)C2c2ccc(Br)cc2)cc1 (stereo unspecified)	.	.	.	.	.	.
Cc1ccc(/C(O)=C2/C(=O)C(=O)OC2c2ccc(Cl)cc2)cc1 (stereo unspecified)	.	.	.	92.1	.	.
C[C@@H]1CCCCO[C@@H](CN(C)Cc2ccncc2)[C@@H](C)CN([C@@H](C)CO)C(=O)c2cc(NS(=O)(=O)c3cn(C)cn3)ccc2O1	/	/	.	/	/	/
COc1ccc(NC(=O)N(C)C[C@@H]2Oc3ncc(C#Cc4ccc(F)cc4)cc3C(=O)N([C@H](C)CO)C[C@@H]2C)cc1	/	/	.	/	/	/
CCc1cccc(Oc2nn[nH]n2)c1	.	.	.	98.1	.	.
C[C@H](CO)N1C[C@H](C)[C@H](CN(C)Cc2ccncc2)Oc2ncc(C#CC3CCCCC3)cc2C1=O	/	/	.	/	/	/
CCCC(=O)Nc1ccc2c(c1)OC[C@@H](C)N(C(=O)c1ccncc1)C[C@@H](C)[C@H](OC)CN(C)C2=O	/	/	.	/	/	/
O=C(O)CSc1nnc(SCc2cccc3ccccc23)s1	.	.	.	98.3	.	.
O=C(O)CSc1c2ccccc2cc2ccccc12	.	.	.	98.9	.	.
O=C(O)COc1ccccc1/C=N/NC(=O)CSc1nnc(SCc2cccc3ccccc23)s1	.	.	/	96.7	.	/
O=C(O)COc1ccccc1/C=N/NC(=O)CSc1nnc(SCc2ccc(Cl)cc2)s1	.	.	/	/	.	/
CCC(=O)N(C)C[C@@H]1Oc2cc(C#Cc3ccncc3)ccc2S(=O)(=O)N([C@@H](C)CO)C[C@@H]1C	/	/	.	/	/	/
C/C(=N\NC(=O)c1cc(C)oc1C)c1ccc(N2CCOCC2)cc1	.	.	/	82.6	.	.
C/C(=N\NC(=O)c1ccccc1Br)c1ccc(N2CCOCC2)cc1	.	.	/	.	.	.
C/C(=N\Nc1nc(C)cc(C)n1)c1ccc(N2CCOCC2)cc1	.	.	/	99.2	.	.
O=C(C[C@@H]1CC[C@H](NC(=O)Nc2cc(F)ccc2F)[C@@H](CO)O1)Nc1ccccc1	/	/	.	/	/	/
O=C(CSc1nc(O)c(-c2ccccc2)c(=O)[nH]1)N1CCOCC1	.	.	.	.	.	.
Cc1ccc(-n2c(SCC(=O)N3CCOCC3)nc(O)c(Cc3ccccc3)c2=O)cc1	.	.	.	.	.	.
CC(C)c1c(O)nc(SCC(=O)N2CCOCC2)[nH]c1=O	.	.	.	95.7	.	.
O=C(CSc1nccc(=O)[nH]1)N1CCOCC1	.	.	.	.	.	.
O=C(CSc1nc(O)c(C(c2ccccc2)c2ccccc2)c(=O)[nH]1)N1CCOCC1	.	.	.	90.7	.	.
O=C(CSc1nc(O)c(Cc2ccccc2)c(=O)n1-c1ccccc1)N1CCOCC1	.	.	.	.	.	40.3
C[C@H]1CN([C@@H](C)CO)C(=O)c2cc(NS(C)(=O)=O)ccc2O[C@@H]1CN(C)S(=O)(=O)c1ccccc1	/	/	.	/	/	/
CC(C)CC#Cc1ccc2c(c1)O[C@H](CN(C)C(=O)c1ccccc1F)[C@@H](C)CN([C@H](C)CO)S2(=O)=O	/	/	.	/	/	/
